AlphaSeq binding of Ab-14 heavy chain variants to a spike HR2 peptide

The target is the same throughout: PDVDLGDISGINAS, from the HR2 region of SARS-CoV-2 spike.

Each scFv is VH, the linker GGGGSGGGGSGGGGS, VL, as in the parent Ab-14, and differs from it in the CDRs of the heavy chain only.
VH: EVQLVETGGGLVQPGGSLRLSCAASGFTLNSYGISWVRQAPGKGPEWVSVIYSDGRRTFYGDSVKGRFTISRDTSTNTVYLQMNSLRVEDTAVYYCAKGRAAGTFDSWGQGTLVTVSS
VL: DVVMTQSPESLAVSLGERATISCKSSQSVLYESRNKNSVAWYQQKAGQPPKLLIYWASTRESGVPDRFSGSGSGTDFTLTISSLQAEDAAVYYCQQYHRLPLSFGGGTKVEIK

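The parent was found by panning a naive human phage display library on the peptide. This is the validation round: designs drawn from the data on random variants, tested in the same kind of assay. Group labels follow the data file (Ctrl: baseline library sampled from a position-specific scoring matrix, with some repeated check sequences; Rand: our label for a block that the file lists under HC and that is probably the random mutants of the ten best first-round binders; En: ensemble of fine-tuned language models; GP: Gaussian process model; GPLM: also part of the Gaussian process libraries; HC: hill climbing; Gen: genetic algorithm; Gibbs: Gibbs sampling; a sequence that several methods proposed may carry one label only). Affinity was read by AlphaSeq, a pooled yeast mating assay with surface-displayed partners. The frequency of each diploid, read from paired DNA barcodes, reflects how well the two displayed proteins bind. Read counts were normalised to the haploid input and turned into Kd by a linear fit to BCL2-family pairs of known affinity, for each replicate. There are six technical replicates.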

The parent's heavy chain CDRs are GFTLNSYGIS, VIYSDGRRTFYGDSVK, GRAAGTFDS; each variant's own CDRs replace them letter for letter. The read-out is the apparent dissociation constant on a log10 scale (nM): the lower, the stronger. The mean shown is taken over the replicates in which the pair was detected. "nd" marks a missing value. The strain was present, yet no cells mated with the target were sequenced in any replicate, which points to weak or no binding. The authors averaged sequences with at least three values out of six and counted those with two or fewer as poor binders. Values of this round are not directly comparable with the first-round values of the same sequences. Empty control strains, which show no peptide, gave a signal in 1% of pairings with all heavy chain designs; the median was 2.08 and 95% of these signals were weaker than 0.84. No background was subtracted. The control count says in how many pairings with the empty strains this scFv gave a signal. Of ten entries with the parent sequence, four were seen in most replicates (averages 0.34 to 2.37), three in one and three in none, so single entries are noisy.

mean log10 Kd (nM),replicates with signal,signal with controls,CDR-H1,CDR-H2,CDR-H3,group
0.49,6 of 6,1 of 18,GFTLNEYGIS,VIYSDGRRTWYGDSVK,GRFAGTFDS,GPLM_HC
nd,0 of 6,0 of 18,GFTLNNYGIS,VIYSDGRRTFYGDSVK,GQLAGTFDS,GP_HC
nd,0 of 6,0 of 18,GFRLNAYGIS,VIYSDGRREFLRDSVK,GQLAETFDS,Rand
-0.18,6 of 6,0 of 18,GFDLNEYGIS,VIYADGMRTAYADSVK,GTNAGTFDL,En_Gen
nd,0 of 6,0 of 18,GFDLNEYGIS,VIYADGRRTFYSDSVK,GENAGFFDV,En_HC
0.98,6 of 6,0 of 18,GFSLNSYGIS,VIYSDGRRTFYGDGVK,GRTAGTFDS,GPLM_Gen
0.16,6 of 6,1 of 18,GFTLNSYGIS,VIYSDGRRTFYSDSVK,GMVAGTFDS,GPLM_HC
nd,0 of 6,0 of 18,GFTLNSYGIS,VIYSDGRRTFYGQSVK,GRAAGIFDS,Ctrl
nd,0 of 6,0 of 18,GFNLNEYGIS,VIYADGLRASYQDSVK,GNARIVGLD,En_Gibbs
2.66,2 of 6,0 of 18,GFTLNEYGIS,VIYSDGRRTFYTDSGK,GRFAGTFDS,Rand
0.04,6 of 6,0 of 18,GFSLNEYGIS,VIYSDGRRTFYGDSVK,GRVAGTFDT,GPLM_Gibbs
-0.62,6 of 6,0 of 18,GFSLDEYGIS,VIYADGRRTFYADSVK,GNEAGTFDS,En_HC
-0.13,6 of 6,0 of 18,GFELNSYGIS,VIYSDGQRTFYADSVK,GRTAGTFDS,GPLM_Gibbs
1.71,5 of 6,0 of 18,GFTVNQYGIS,VIYSDGIRTFYGDSVK,GRAAGTFDS,Ctrl
2.00,1 of 6,2 of 18,GFHLNMYGIS,VIYSDGRRTFYGDSVK,GRAATTFTS,Ctrl
-0.56,6 of 6,0 of 18,GFDLDEYGIS,VIYADGQRTFYSDSVK,GSTAGTFDV,En_HC
1.05,5 of 6,0 of 18,GFELNSYGIS,VIYADGRRTFYGDSVK,GKAAGTFDC,GP_Gen
-0.01,6 of 6,0 of 18,GFSLNDYGIS,VIYSDGRRTFYGDSVK,GRAAVTFDS,GP_HC
-0.22,6 of 6,0 of 18,GFDLNSYGIS,VIYSDGRRTFYIDSVK,GREAGTFDS,GPLM_Gibbs
-0.57,6 of 6,1 of 18,GFDLDEYGIS,VIYADGMRTAYADKVK,GNVAGTFDQ,En_Gen
-0.34,6 of 6,0 of 18,GFDLNEYGIS,VIYADGMRKSYADSVK,GENAGTFDV,En_Gen
0.16,6 of 6,0 of 18,GFQLNEYGIS,VIYSDGRRTFYGDSVK,GRTAGTFDF,GP_Gen
-0.05,6 of 6,1 of 18,GFDLEEYGIS,VIYADGMRTAYSDSVK,GEVAGTFDV,En_Gen
1.33,2 of 6,0 of 18,GFDLNEYGIS,VIYADGQRTAYADSVK,GNTAGTFDL,En_Gen
-0.43,6 of 6,1 of 18,GFDLNEYGIS,VIYADGMRTVYTDSVK,GNVAGTFDV,En_Gen
-0.25,6 of 6,1 of 18,GFDLNEYGIS,VIYADGMRTAYQDSVK,GQNAGTFDV,En_Gen
0.16,6 of 6,1 of 18,GFSLNSYGIS,VIYSDGRRTAYSDSVK,GRTAGTFDS,GPLM_Gen
1.78,3 of 6,0 of 18,SFTLNSYGIS,VIYSDGRRTFYGDSVK,GREAGTFDT,GP_Gibbs
nd,0 of 6,0 of 18,GLTLNSYGIS,VIYSDGRRAFYGDSVK,GRAAGTFDS,Ctrl
nd,0 of 6,2 of 18,GFTLNDYGIS,VIYSDGRRTFYGDSVK,GRAAGTFTT,GP_HC
-0.59,6 of 6,0 of 18,GFDLNEYGIS,VIYADGMRTAYADSVK,GQVAGTFDV,En_Gen
nd,0 of 6,0 of 18,GYDLDQYGIS,VIYADGMRSYYADSVK,GHEGDILYV,En_Gibbs
nd,0 of 6,0 of 18,GFNLSEYGIS,VIYADGMRSNYADSFK,GKSGNFFID,En_Gibbs
-0.66,6 of 6,0 of 18,GFDLNEYGIS,VIYADGRRTAYGDSVK,GNNAGTFDQ,En_HC
0.92,6 of 6,1 of 18,GFTLNEYGIS,VIYSDGRRTQYSDSVK,GRAAGTFDS,GP_HC
-0.22,6 of 6,1 of 18,GFDLNEYGIS,VIYADGVRTFYSDSVK,GENAGTFDV,En_Gen
1.60,6 of 6,0 of 18,GFTLNSYGIS,VIYSDGYRTFYADSVK,GRAAGTFDS,GP_HC
-0.09,6 of 6,0 of 18,GFDLNEYGIS,VIYADGMRTYYIDSVK,GNVAGTFDV,En_HC
-0.24,6 of 6,2 of 18,GFDLNEYGIS,VIYADGRRTFYADSVK,GKTAGTFNV,En_HC
nd,0 of 6,0 of 18,GCSLNEYGIS,VIYSDGRRTFYGDSVK,GRAAVTFDQ,GP_HC
nd,0 of 6,0 of 18,GFELNSYGIS,VIYSDGRRTFYADMVK,GQTAGTFDS,GP_Gen
-0.48,6 of 6,0 of 18,GFDLDEYGIS,VIYADGMRTAYTDSVK,GTNAGTFDI,En_Gen
0.40,4 of 6,0 of 18,GFTLNDYGIS,VIYSDGRRVFYGDSVS,GRAAGTFDS,Ctrl
0.84,6 of 6,2 of 18,GFDLNSYGIS,VIYSDGRRTFYADMVK,GRTAGTFDS,GP_Gen
nd,0 of 6,0 of 18,DFQLNQYGIS,VIYSDGRRTFYSDSVK,GRAAGFFDS,Rand
-0.05,6 of 6,0 of 18,GFDLNEYGIS,VIYADGMRTAYADSVK,GNVAGTFVL,En_Gen
-0.18,6 of 6,0 of 18,GFDLNTYGIS,VIYSDGRRTFYADSVK,GQAAGTFDS,GPLM_Gen

Data: MIT Lincoln Laboratory AlphaSeq set, Li et al. 2023, doi:10.1038/s41467-023-39022-2, as distributed in FLAb.